The values below come from ChEMBL document CHEMBL1143946, “Docking analyses on human muscarinic receptors: unveiling the subtypes peculiarities in agonists binding” (Bioorg Med Chem, 2008).

The chains behind the UniProt entries cited, without tags or fusion partners. Where a name states a change or a piece, a line headed by the entry shows the natural chain unless it says otherwise.
UniProt P11229: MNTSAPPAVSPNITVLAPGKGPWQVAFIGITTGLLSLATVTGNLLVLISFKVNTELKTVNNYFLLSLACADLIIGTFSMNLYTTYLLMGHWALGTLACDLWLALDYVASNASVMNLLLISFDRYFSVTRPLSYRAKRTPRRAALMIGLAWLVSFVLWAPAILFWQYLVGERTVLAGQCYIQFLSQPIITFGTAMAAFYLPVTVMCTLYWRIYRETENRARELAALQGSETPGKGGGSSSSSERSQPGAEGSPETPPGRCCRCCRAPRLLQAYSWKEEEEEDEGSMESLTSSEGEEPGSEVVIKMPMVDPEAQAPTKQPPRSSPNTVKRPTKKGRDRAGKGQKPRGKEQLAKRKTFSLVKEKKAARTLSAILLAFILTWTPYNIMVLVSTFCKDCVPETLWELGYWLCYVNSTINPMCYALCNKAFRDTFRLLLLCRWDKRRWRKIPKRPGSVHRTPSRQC

The target in the assay is Muscarinic acetylcholine receptor M1 (Homo sapiens, UniProt P11229). The assay can be described thus: biochemical.

The molecule `C[C@H]1COC[C@@H](C[N+](C)(C)C)O1` gave a Ki of 8.32 µM.

The term Ki denotes a measure of affinity in units of concentration, obtained from inhibition or displacement. Low readings indicate higher affinity, high ones lower affinity.
